How the values were obtained:
[1] = system: enkephalinase; experiment: Enkephalinase inhibitory activity in vivo (potentiation of the analgesic activity of DAME, tail pressure pain); conditions: p.o., 30 minutes before intracisternal DAME; pressure pain threshold measured 5 minutes after DAME; male Std:ddy mice; tested form: free acid
Experimental: (2) Enkephalinase inhibitory activity in vivo
(Potentiation of the analgesic activity of DAME)
Pressure pain was induced by pressing the tail of male Std:ddy mice (weighing 20 - 26 g) using an apparatus for pressure measurement. The pressure pain threshold (biting response) was measured as mm. Test compound, dissolved or suspended in 0.5 % gum tragacanth aqueous solution, was given orally 30 minutes before intracisternaly administration of D-Ala²-Met⁵-enkephalin (DAME). Five minutes after administration of DAME, the pressure pain threshold was measured, and the potentiation activity of test compounds on the analgesic effect of DAME was tested.

Amino acid sequences for entries named in this document (tags omitted).
UniProt P07861, whole entry: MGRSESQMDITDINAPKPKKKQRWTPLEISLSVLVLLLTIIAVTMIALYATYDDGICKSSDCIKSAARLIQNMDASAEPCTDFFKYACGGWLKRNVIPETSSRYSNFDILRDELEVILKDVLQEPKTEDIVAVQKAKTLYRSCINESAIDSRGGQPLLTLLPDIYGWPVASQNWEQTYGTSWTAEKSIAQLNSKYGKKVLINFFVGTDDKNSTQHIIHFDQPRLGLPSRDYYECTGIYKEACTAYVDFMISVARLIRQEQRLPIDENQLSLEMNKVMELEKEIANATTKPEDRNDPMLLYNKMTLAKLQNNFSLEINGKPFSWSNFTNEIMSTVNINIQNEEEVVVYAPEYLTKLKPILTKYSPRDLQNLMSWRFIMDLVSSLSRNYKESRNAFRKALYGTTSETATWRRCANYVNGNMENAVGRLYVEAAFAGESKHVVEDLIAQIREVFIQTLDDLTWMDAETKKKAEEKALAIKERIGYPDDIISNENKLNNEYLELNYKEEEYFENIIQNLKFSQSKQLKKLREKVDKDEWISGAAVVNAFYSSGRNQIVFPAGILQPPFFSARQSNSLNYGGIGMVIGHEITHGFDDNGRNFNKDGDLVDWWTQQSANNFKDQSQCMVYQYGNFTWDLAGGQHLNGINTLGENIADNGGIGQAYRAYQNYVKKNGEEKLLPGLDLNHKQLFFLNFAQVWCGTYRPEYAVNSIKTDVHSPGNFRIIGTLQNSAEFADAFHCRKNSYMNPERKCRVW

[2] = molecular target: enkephalinase (Rattus norvegicus, UniProt P07861); experiment: Enkephalinase inhibitory activity in vitro ([³H]-leucine-enkephalin degradation); conditions: read-out: IC₅₀; rat striatum enkephalinase; substrate [³H]-leucine-enkephalin 20 nM; 1 hour at 37°C; tested form: free acid
Experimental: (3) Enkephalinase inhibitory activity in vitro
Enkephalin degrading enzymes were separated according to the method described by Gorenstein and Snyder (Life Science, 25, 2065 (1979)).
Male Std:Wistar rats were decapitated and the striata were removed. These were homogenized in 30 volumes of 50 mM Tris-HCl buffer (pH 7.4) and centrifuged for 15 minutes at 1,000 x g. The supernatant was centrifuged for 15 minutes at 50,000 x g. The pellet was washed three times with the same buffer and then suspended in 15 volumes of 50 mM Tris-HCl buffer (pH 7.4) containing 1 % Triton X-100, followed by incubation for 45 minutes at 37°C. After centrifugation for 1 hour at 100,000 x g, the supernatant was applied onto DEAE-cellulose ion exchange chromatography column. The fraction containing enkephalin dipeptidylcarboxypeptidase was used as enkephalinase sample.
(ii) Measurement of inhibitory activity
After preincubation of test compound and enkephalinase for 5 minutes at 37°C, [³H]-leucine-enkephalin (substrate) was added to the reaction mixture and then the mixture was incubated for 1 hour at 37°C (final volume: 100 µl, final concentration of substarate: 20 nM). […] The IC₅₀-value of test compounds was calculated from the inhibitory rates, estimated from the difference between the enzyme activities in the absence and the presence of test compound.

IC50 [2]: 2.1 nM
SMILES: O=C(O)c1cccc(NC(=O)C(CS)Cc2ccccc2)c1 (centres unmarked)
ED₅₀ [1]: 51.0 mg/kg

Reference: patent publication EP0318859A2, “N-substituted mercaptopropanamide derivatives” (Dainippon Pharmaceutical Co., Ltd., priority 1987, dated 1989)
